Results: ChEMBL document CHEMBL1137856, “The pharmacophore hypotheses of I(Kr) potassium channel blockers: novel class III antiarrhythmic agents” (Bioorg Med Chem Lett, 2004)

Sequences of proteins named here, by UniProt entry; tags and fusion partners are left off. A change or cut given only in a name is not applied to a line headed by its entry.
UniProt Q12809: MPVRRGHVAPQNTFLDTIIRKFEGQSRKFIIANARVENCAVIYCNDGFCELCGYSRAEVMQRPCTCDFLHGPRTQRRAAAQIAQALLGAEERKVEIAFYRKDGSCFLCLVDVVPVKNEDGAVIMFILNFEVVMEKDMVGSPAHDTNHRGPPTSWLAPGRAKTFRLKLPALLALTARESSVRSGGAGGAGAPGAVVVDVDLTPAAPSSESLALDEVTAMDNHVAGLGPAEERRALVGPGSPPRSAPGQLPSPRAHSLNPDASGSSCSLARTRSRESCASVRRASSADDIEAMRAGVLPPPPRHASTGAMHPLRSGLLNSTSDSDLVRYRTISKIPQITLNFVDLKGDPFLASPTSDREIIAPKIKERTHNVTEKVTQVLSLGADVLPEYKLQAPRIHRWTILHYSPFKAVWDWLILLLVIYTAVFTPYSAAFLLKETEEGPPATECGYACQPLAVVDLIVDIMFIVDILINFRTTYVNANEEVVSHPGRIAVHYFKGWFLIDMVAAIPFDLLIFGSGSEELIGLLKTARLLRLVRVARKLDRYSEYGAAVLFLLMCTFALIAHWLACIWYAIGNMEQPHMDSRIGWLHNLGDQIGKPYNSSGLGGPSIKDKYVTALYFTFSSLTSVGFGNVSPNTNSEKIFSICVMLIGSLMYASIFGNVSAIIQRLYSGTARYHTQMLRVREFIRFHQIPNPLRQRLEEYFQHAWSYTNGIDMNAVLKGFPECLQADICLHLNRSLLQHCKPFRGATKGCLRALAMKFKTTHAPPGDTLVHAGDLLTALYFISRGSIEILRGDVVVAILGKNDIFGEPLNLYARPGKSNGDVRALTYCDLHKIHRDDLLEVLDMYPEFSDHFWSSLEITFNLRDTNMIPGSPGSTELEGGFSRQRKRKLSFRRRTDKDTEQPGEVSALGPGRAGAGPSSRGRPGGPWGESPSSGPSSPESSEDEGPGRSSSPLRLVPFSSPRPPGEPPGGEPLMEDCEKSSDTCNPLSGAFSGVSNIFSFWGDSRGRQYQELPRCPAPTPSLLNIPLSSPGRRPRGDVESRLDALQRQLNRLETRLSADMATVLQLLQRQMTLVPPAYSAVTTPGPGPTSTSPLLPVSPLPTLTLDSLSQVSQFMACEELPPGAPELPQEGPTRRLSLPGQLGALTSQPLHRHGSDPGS

Biological target: Voltage-gated inwardly rectifying potassium channel KCNH2 (Homo sapiens, UniProt Q12809)

Row | SMILES | IC50 [nM]
1 | CC(C)COCC(CN(Cc1ccccc1)c1ccccc1)N1CCCC1 (configuration not stated) [BEPRIDIL] | 430
2 | O[C@H](c1cc(C(F)(F)F)nc2c(C(F)(F)F)cccc12)[C@@H]1CCCCN1 [MEFLOQUINE] | 2600
